Assay results as given in patent publication US20250367134A1, “PERIPHERALIZATION OF CENTRALLY-ACTING CANNABINOID-1 RECEPTOR ANTAGONISTS BY NANOPARTICLES FOR THE TREATMENT METABOLIC RELATED CONDITIONS” (Yissum Research Development Company of the Hebrew …, priority 2022, published 2025).
Where a name gives a salt, the structure may show the parent alone.

Sequences of proteins named here, by UniProt entry; tags and fusion partners are left off.
UniProt P47746, whole entry: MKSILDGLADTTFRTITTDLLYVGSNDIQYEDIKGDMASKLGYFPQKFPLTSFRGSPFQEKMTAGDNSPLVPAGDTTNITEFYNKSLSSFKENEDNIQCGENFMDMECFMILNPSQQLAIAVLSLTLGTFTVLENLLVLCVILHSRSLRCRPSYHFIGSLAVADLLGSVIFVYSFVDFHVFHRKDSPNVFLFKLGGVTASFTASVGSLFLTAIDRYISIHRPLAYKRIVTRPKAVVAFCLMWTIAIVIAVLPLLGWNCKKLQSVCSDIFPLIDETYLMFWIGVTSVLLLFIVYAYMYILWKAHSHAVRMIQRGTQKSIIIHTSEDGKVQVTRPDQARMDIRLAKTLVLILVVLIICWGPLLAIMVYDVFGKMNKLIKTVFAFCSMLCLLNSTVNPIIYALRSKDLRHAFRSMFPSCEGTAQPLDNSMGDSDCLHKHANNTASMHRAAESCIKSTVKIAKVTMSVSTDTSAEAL

Experiments:
brain's CB1Rs = target: T1, brain's CB1Rs (Mus musculus, UniProt P47746); test: Acute food and water intake; format: in vivo, mice
T1 construct: from tissue; host or cells: brain of living C57Bl/6JHsd mice (in vivo)

brain's CB1R = target: T2, brain's CB1R (Mus musculus, UniProt P47746); test: Catalepsy test (bar test, WIN-55,212-induced); format: in vivo, mice
T2 construct: from tissue; host or cells: brain of living C57Bl/6JHsd mice (in vivo)

Cc1c(C(=O)NN2CCCCC2)nn(-c2ccc(Cl)cc2Cl)c1-c1ccc(Cl)cc1 [free rimonabant, N-(piperidin-1-yl)-5-(4-chlorophenyl)-1-(2,4-dichlorophenyl)-4-methyl-1H-pyrazole-3-carboxamide hydrochloride]
acute food and water intakes (brain's CB1Rs; 1 mg/kg ip): but not
acute food and water intakes (brain's CB1Rs; 10 mg/kg ip): inhibited acute food and water intakes
inhibition of WIN-55,212 (3 mg/kg, ip)-induced catalepsy (brain's CB1R; 1 mg/kg ip): inhibited
inhibition of WIN-55,212 (3 mg/kg, ip)-induced catalepsy (brain's CB1R; 10 mg/kg ip): inhibited
